Results from patent publication EP4831180A1, “NOVEL KINASE INHIBITOR” (dated 2026).

Chains of the proteins cited; added tags and fusions are not shown. Residues count along the entry.
UniProt Q9UM73, 19-1620 L1196M/G1202R limits assumed: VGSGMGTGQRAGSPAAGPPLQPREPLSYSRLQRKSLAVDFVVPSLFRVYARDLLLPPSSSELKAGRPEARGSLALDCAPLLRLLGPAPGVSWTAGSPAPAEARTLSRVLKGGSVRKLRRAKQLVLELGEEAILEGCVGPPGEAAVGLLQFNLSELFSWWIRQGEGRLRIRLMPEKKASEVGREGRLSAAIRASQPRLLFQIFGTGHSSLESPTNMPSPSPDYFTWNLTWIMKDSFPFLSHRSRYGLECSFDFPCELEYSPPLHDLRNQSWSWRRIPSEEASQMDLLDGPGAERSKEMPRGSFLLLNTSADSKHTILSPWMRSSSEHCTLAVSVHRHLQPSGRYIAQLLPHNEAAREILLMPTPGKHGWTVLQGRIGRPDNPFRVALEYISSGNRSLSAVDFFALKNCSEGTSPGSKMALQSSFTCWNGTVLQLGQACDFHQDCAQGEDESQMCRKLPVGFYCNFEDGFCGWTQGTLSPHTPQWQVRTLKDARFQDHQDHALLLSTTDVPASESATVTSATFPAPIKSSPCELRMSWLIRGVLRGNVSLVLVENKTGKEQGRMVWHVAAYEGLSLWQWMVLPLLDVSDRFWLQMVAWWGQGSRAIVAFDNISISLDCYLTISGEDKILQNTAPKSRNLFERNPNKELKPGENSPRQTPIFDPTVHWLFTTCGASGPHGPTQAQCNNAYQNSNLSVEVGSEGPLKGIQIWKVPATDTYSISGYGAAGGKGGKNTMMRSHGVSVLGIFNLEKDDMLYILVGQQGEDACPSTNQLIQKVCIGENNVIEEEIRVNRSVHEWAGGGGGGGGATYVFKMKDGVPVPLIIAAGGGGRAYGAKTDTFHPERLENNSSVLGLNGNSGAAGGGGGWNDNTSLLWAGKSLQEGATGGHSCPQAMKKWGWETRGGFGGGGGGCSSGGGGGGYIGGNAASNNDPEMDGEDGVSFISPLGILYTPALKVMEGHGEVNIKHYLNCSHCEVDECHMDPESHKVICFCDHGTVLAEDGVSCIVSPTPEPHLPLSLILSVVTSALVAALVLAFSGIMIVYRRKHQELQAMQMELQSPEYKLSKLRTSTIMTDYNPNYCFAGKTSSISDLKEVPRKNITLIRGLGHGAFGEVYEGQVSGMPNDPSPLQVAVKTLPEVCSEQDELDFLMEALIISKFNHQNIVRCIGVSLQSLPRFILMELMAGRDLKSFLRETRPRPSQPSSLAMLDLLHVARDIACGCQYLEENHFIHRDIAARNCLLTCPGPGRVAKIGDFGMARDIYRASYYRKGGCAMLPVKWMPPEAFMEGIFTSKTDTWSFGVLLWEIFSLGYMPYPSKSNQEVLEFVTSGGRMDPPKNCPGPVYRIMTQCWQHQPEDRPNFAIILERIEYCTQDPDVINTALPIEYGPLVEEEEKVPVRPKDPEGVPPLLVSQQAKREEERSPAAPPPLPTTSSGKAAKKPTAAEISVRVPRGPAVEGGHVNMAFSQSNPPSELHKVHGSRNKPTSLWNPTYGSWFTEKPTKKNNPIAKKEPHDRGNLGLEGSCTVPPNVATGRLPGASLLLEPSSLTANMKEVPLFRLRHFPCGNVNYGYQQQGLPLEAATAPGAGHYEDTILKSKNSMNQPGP

Tests used:
His-ALK^G1202R/L1196M = His-ALK^G1202R/L1196M (Homo sapiens, UniProt Q9UM73, G1202R/L1196M); experiment: ALK G1202R/L1196M compound mutant kinase inhibitory activity assay (HTRF); conditions: read-out: ALK^G1202R/L1196M Enzyme, IC50, ATP 4 µM, enzyme 0.5 nM, 1 hour at 23 °C
[1] = test system: Baf3 EML4-ALK V1^G1202R/L1196M cells; conditions: read-out: BaF3 EML4-ALK^G1102R/L1196M, IC50; 3 days incubation, Cell-Titer Glo

Row | Molecule | IC50 (His-ALK^G1202R/L1196M) [nM] | IC50 [1] [nM]
1 | CCn1nc(C#Cc2ccn(C)c(=O)c2)c2c1-c1cnc(N)c(c1)O[C@H](C)c1cc(F)ccc1-c1nn(C)cc1C2 | < 5 | < 10
2 | C#Cc1nn(CC2CC2)c2c1Cc1cn(C)nc1-c1ccc(F)cc1[C@@H](C)Oc1cc-2cnc1N | < 5 | < 10
3 | CCn1nc(C#Cc2cccnn2)c2c1-c1cnc(N)c(c1)O[C@H](C)c1cc(F)ccc1-c1nn(C)cc1C2 | < 5 | < 10
4 | CCn1nc(C#Cc2cnn(CCO)c2)c2c1-c1cnc(N)c(c1)O[C@H](C)c1cc(F)ccc1-c1nn(C)cc1C2 | < 5 | < 10
5 | CCn1nc(C#Cc2cn[nH]c2)c2c1-c1cnc(N)c(c1)O[C@H](C)c1cc(F)ccc1-c1nn(C)cc1C2 | < 5 | < 10
6 | CCn1nc(C#Cc2cnccn2)c2c1-c1cnc(N)c(c1)O[C@H](C)c1cc(F)ccc1-c1nn(C)cc1C2 | < 5 | < 10
7 | CCn1nc(C#CCN)c2c1-c1cnc(N)c(c1)O[C@H](C)c1cc(F)ccc1-c1nn(C)nc1C2 | < 5 | < 10
8 | (19R)-3-ethyl-16-fluoro-10,19-dimethyl-5-((3-(oxetan-3-yl)imidazol-5-yl) ethynyl)-20-oxa-3,4,10,11,23-pentaazapentacyclo[19.3. 1.0^1,12.0^13,18.0^2,6]pentacosa-1(25),2(6),4, 8(9),11,13(18),14,16,21(22),23-decaen-22-amine | < 5 | < 10
9 | [2H]C([2H])([2H])n1cc2c(n1)-c1ccc(F)cc1[C@@H](C)Oc1cc(cnc1N)-c1c(c(C#C)nn1CC)C2 | < 5 | < 10
10 | CCn1nc(C#CC2(C)CCOCC2)c2c1-c1cnc(N)c(c1)O[C@H](C)c1cc(F)ccc1-c1nn(C)cc1C2 | < 5 | < 10
11 | CCn1nc(C#Cc2cnc(CO)cn2)c2c1-c1cnc(N)c(c1)O[C@H](C)c1cc(F)ccc1-c1nn(C)cc1C2 | < 5 | < 10
12 | CCn1nc(C#CC(C)(C)NC(=O)N(C)C)c2c1-c1cnc(N)c(c1)O[C@H](C)c1cc(F)ccc1-c1nn(C)cc1C2 | < 5 | < 10
13 | CCn1nc(C#CC(=O)N2CC(F)(F)C2)c2c1-c1cnc(N)c(c1)O[C@H](C)c1cc(F)ccc1-c1nn(C)cc1C2 | < 5 | < 10
14 | CCn1nc(C#CC2CCCN2)c2c1-c1cnc(N)c(c1)O[C@H](C)c1cc(F)ccc1-c1nn(C)cc1C2 (stereo partly shown) | < 5 | < 10
15 | C=CCc1nn(CC)c2c1Cc1cn(C)nc1-c1ccc(F)cc1[C@@H](C)Oc1cc-2cnc1N | < 5 | 
16 | CCn1nc(C#Cc2ccc[nH]c2=O)c2c1-c1cnc(N)c(c1)O[C@H](C)c1cc(F)ccc1-c1nn(C)cc1C2 | < 5 | 
17 | CCn1nc(N=S2(=O)CC3(CCC3)C2)c2c1-c1cnc(N)c(c1)O[C@H](C)c1cc(F)ccc1-c1nn(C)cc1C2 | < 5 | 
18 | CCn1nc(C#CCOC)c2c1-c1cnc(N)c(c1)O[C@H](C)c1cc(F)ccc1-c1nn(C)cc1C2 | < 5 | 
19 | CCn1nc(C#CC(N)=O)c2c1-c1cnc(N)c(c1)O[C@H](C)c1cc(F)ccc1-c1nn(C)nc1C2 | < 5 | 
20 | CCn1nc(C#Cc2scnc2C)c2c1-c1cnc(N)c(c1)O[C@H](C)c1cc(F)ccc1-c1nn(C)cc1C2 | < 5 | 
21 | CCn1nc(C#Cc2cccc(=O)n2C)c2c1-c1cnc(N)c(c1)O[C@H](C)c1cc(F)ccc1-c1nn(C)cc1C2 | < 5 | 
22 | CCn1nc(C#Cc2ccc(C#N)nc2)c2c1-c1cnc(N)c(c1)O[C@H](C)c1cc(F)ccc1-c1nn(C)cc1C2 | < 5 | 
23 | (19R)-3-ethyl-16-fluoro-10,19-dimethyl-5-((1-methyl-1,2,4-triazol-,3-yl)et hynyl)-20-oxa-3,4,10,11,23-pentaazapentacyclo[19.3. 1.0^2,6.0^8,12.0^13,18]pentacosa-1(24),2(6),4,8 (9),11,13(18),14,16,21(25),22-decaen-22-amine | < 5 | < 10

Row | Molecule | IC50 (His-ALK^G1202R/L1196M) [nM] | IC50 [1] [nM]
24 | CCn1nc(C#Cc2cnn(C(F)(F)F)c2)c2c1-c1cnc(N)c(c1)O[C@H](C)c1cc(F)ccc1-c1nn(C)cc1C2 | < 5 | 
25 | CCn1nc(C#Cc2cncn2CC(F)(F)F)c2c1-c1cnc(N)c(c1)O[C@H](C)c1cc(F)ccc1-c1nn(C)cc1C2 | < 5 | 
26 | CCn1nc(C#Cc2cnn(CC(C)(C)O)c2)c2c1-c1cnc(N)c(c1)O[C@H](C)c1cc(F)ccc1-c1nn(C)cc1C2 | < 5 | 
27 | CCn1nc(C#Cc2cc[nH]c(=O)c2)c2c1-c1cnc(N)c(c1)O[C@H](C)c1cc(F)ccc1-c1nn(C)cc1C2 | < 5 | 
28 | CCn1nc(C#CCN(C)C)c2c1-c1cnc(N)c(c1)O[C@H](C)c1cc(F)ccc1-c1nn(C)nc1C2 | < 5 | < 10
29 | CCn1nc(N=S2(=O)CCOCC2)c2c1-c1cnc(N)c(c1)O[C@H](C)c1cc(F)ccc1-c1nn(C)cc1C2 | < 5 | < 10
30 | CCn1nc(C#CC(C)(C)NC(C)=O)c2c1-c1cnc(N)c(c1)O[C@H](C)c1cc(F)ccc1-c1nn(C)cc1C2 | < 5 | 
31 | CCn1ncc2c1-c1cnc(N)c(c1)O[C@H](C(F)(F)F)c1cc(F)ccc1-c1nn(C)nc1C2 | < 5 | 
32 | CCn1nc(C#Cc2ccc(=O)n(CC(F)(F)F)c2)c2c1-c1cnc(N)c(c1)O[C@H](C)c1cc(F)ccc1-c1nn(C)cc1C2 | < 5 | 
33 | CCn1nc(C#Cc2cocn2)c2c1-c1cnc(N)c(c1)O[C@H](C)c1cc(F)ccc1-c1nn(C)cc1C2 | < 5 | < 10
34 | CCn1nc(C#CC(C)(C)NS(=O)(=O)C(F)(F)F)c2c1-c1cnc(N)c(c1)O[C@H](C)c1cc(F)ccc1-c1nn(C)cc1C2 | < 5 | 
35 | C#Cc1c2c(nn1C)-c1ccc(F)cc1[C@@H](C)Oc1cc(cnc1N)-c1c(cnn1CC)C2 | < 5 | 
36 | CCn1nc(C#CC(C)(C)C)c2c1-c1cnc(N)c(c1)O[C@H](C)c1cc(F)ccc1-c1nn(C)cc1C2 | < 5 | 
37 | C#Cc1nn(CCOC)c2c1Cc1cn(C)nc1-c1ccc(F)cc1[C@@H](C)Oc1cc-2cnc1N | < 5 | 
38 | C=C(F)c1nn(CC)c2c1Cc1nn(C)nc1-c1ccc(F)cc1[C@@H](C)Oc1cc-2cnc1N | < 5 | 
39 | [2H]C([2H])([2H])n1cc2c(n1)-c1ccc(F)cc1[C@@H](C)Oc1cc(cnc1N)-c1c(c(C#C)nn1CC1CC1)C2 | < 5 | < 10
40 | CCn1nc(C#Cc2cccc(C(C)(C)O)n2)c2c1-c1cnc(N)c(c1)O[C@H](C)c1cc(F)ccc1-c1nn(C)cc1C2 | < 5 | 
41 | C#Cc1nn(CC)c2c1Cc1sc(C)nc1-c1ccc(F)cc1[C@@H](C)Oc1cc-2cnc1N | < 5 | < 10
42 | CCn1nc(C#Cc2ccc(C(C)(C)O)cn2)c2c1-c1cnc(N)c(c1)O[C@H](C)c1cc(F)ccc1-c1nn(C)cc1C2 | < 5 | 
43 | CCn1nc(C#CCO)c2c1-c1cnc(N)c(c1)O[C@H](C)c1cc(F)ccc1-c1nn(C)nc1C2 | < 5 | < 10
44 | CCn1nc(C#CC2(O)CCC2)c2c1-c1cnc(N)c(c1)O[C@H](C)c1cc(F)ccc1-c1nn(C)cc1C2 | < 5 | < 10
45 | C#Cc1nn(CC)c2c1Cc1scnc1-c1ccc(F)cc1[C@@H](C)Oc1cc-2cnc1N | < 5 | 
46 | CCn1nc(C#Cc2ccnc(N)c2)c2c1-c1cnc(N)c(c1)O[C@H](C)c1cc(F)ccc1-c1nn(C)cc1C2 | < 5 | < 10

Row | Molecule | IC50 (His-ALK^G1202R/L1196M) [nM] | IC50 [1] [nM]
47 | C=CCc1nn(CC)c2c1Cc1cn(C(F)F)nc1-c1ccc(F)cc1[C@@H](C)Oc1cc-2cnc1N | < 5 | 
48 | C=Cc1c2c(nn1C)-c1ccc(F)cc1[C@@H](C)Oc1cc(cnc1N)-c1c(cnn1CC)C2 | < 5 | 
49 | CCn1nc(C#CCCCN)c2c1-c1cnc(N)c(c1)O[C@H](C)c1cc(F)ccc1-c1nn(C)cc1C2 | < 5 | 
50 | CCn1nc(/C=C/c2cccnc2)c2c1-c1cnc(N)c(c1)O[C@H](C)c1cc(F)ccc1-c1nn(C)nc1C2 | < 5 | 
51 | C#Cc1nn(CC)c2c1Cc1ccc(C)nc1-c1ccc(F)cc1[C@@H](C)Oc1cc-2cnc1N | < 5 | < 10
52 | CCn1nc(C#CC2(C#N)CCOCC2)c2c1-c1cnc(N)c(c1)O[C@H](C)c1cc(F)ccc1-c1nn(C)cc1C2 | < 5 | 
53 | CCn1nc(C#Cc2ccc(OC)nc2)c2c1-c1cnc(N)c(c1)O[C@H](C)c1cc(F)ccc1-c1nn(C)cc1C2 | < 5 | 
54 | CCn1nc(C#Cc2cnc3[nH]ncc3c2)c2c1-c1cnc(N)c(c1)O[C@H](C)c1cc(F)ccc1-c1nn(C)cc1C2 | < 5 | 
55 | CCn1nc(C#CC2CC2)c2c1-c1cnc(N)c(c1)O[C@H](C)c1cc(F)ccc1-c1nn(C)cc1C2 | < 5 | 
56 | CCn1nc(C#Cc2cnn(C3CC3)c2)c2c1-c1cnc(N)c(c1)O[C@H](C)c1cc(F)ccc1-c1nn(C)cc1C2 | < 5 | 
57 | CCn1nc(C#Cc2cccn2C)c2c1-c1cnc(N)c(c1)O[C@H](C)c1cc(F)ccc1-c1nn(C)cc1C2 | < 5 | 
58 | CCn1nc(C#Cc2ccc(F)cn2)c2c1-c1cnc(N)c(c1)O[C@H](C)c1cc(F)ccc1-c1nn(C)cc1C2 | < 5 | 
59 | C#Cc1nn(CC)c2c1Cc1nn(C)nc1-c1ccc(F)cc1[C@@H](C)Oc1cc-2cnc1N | < 5 | 
60 | CCn1nc(C#CC(C)(C)NS(=O)(=O)C(C)C)c2c1-c1cnc(N)c(c1)O[C@H](C)c1cc(F)ccc1-c1nn(C)cc1C2 | < 5 | 
61 | CCn1nc(C#CC2(O)CCCCC2)c2c1-c1cnc(N)c(c1)O[C@H](C)c1cc(F)ccc1-c1nn(C)cc1C2 | < 5 | 
62 | CCn1nc(C#CC2(O)COC2)c2c1-c1cnc(N)c(c1)O[C@H](C)c1cc(F)ccc1-c1nn(C)cc1C2 | < 5 | 
63 | CCn1nc(C#CC2CCCCC2)c2c1-c1cnc(N)c(c1)O[C@H](C)c1cc(F)ccc1-c1nn(C)cc1C2 | < 5 | 
64 | CCn1nc(C#Cc2ccn3nccc3c2)c2c1-c1cnc(N)c(c1)O[C@H](C)c1cc(F)ccc1-c1nn(C)cc1C2 | < 5 | 
65 | CCn1nc(N=S(C)(=O)C2CC2)c2c1-c1cnc(N)c(c1)O[C@H](C)c1cc(F)ccc1-c1nn(C)cc1C2 (stereo partly shown) | < 5 | 
66 | CCn1nc(C#Cc2cn(CC(F)(F)F)cn2)c2c1-c1cnc(N)c(c1)O[C@H](C)c1cc(F)ccc1-c1nn(C)cc1C2 | < 5 | 
67 | CCn1nc(Cl)c2c1-c1cnc(N)c(c1)N1CCCC1c1cc(F)ccc1-c1nn(C)cc1C2 (stereo not shown) | < 5 | 
